Test system: Escherichia coli WP2 uvrA (pKM101)
Experiment: Ames assay, strain WP2 uvrA (pKM101)
Conditions: Positive Control chemical; concentration not given; without S9

N-methyl-N′-nitro-N-nitrosoguanidine
Mean Revertant Colony Counts WP2 uvrA (pKM101) S9-: 328.0
